ALR inh: inhibitors of human sulfhydryl oxidase ALR; inhibition, % (no concentration beside the values); AID 485317; purified ALR, DTT oxidation, H2O2 HRP-luminol luminescence; 290,000 tested, 3.8% active; P55789;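 active means mean and each replicate at 75% or more; inconclusive means only one of the two met; inactive means neither met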;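 further: stock transfer was 7.5 nL into about 7.5 µL; 0% = neutral wells and 100% = wells with inactivated enzyme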
NALP1 inh: inhibitors of NALP1 inflammasome in yeast. S. cerevisiae NALP1/ASC/caspase-1 growth, X-gal OD620, 72 h. 280,000 tested, 0.61% active. inhibition, % at 10 µM. AID 2071; in the data active means inhibition mostly above about 24%, no sharp cut-off; inactive means mostly below about 32%
Yeast UUG start: modulators of yeast start codon fidelity, primary screen, whole organism, S. cerevisiae, single point, plate reader; activity score, % at 18.7 µM; actives 0.13% (n = 350,000); S. cerevisiae UUG-firefly luciferase reporter, luminescence/redox ratio;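 active = replicate mean at a twofold rise or more, about +100% in these data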;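 also: firefly luciferase made from a UUG start codon reports start codon fidelity; reporter light over untreated wells divided by growth signal over untreated wells; some hits fall short of that in this replicate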
MC4R antag cAMP: human MC4R antagonism in cAMP assay. MC4R-expressing cells, MTII-stimulated cAMP, LANCE TR-FRET. P32245. 360,000 tested, 0.48% active. inhibition, % at 6.5 µM. AID 540295;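 active means inhibition above its plate's cutoff, the mean of tested wells on that plate plus 3 SD, cut at about 29% in these data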
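System: U2OS-MC4R stable cell line; Technique: Eu-cAMP/anti-cAMP TR-FRET, emission 671 nm; Repeats: single well per compound; Also added: Melanotan II; Dosing: one concentration, 6.5 µM nominal; Schedule: 30-min compound, 1-h challenge, 1-h detection, room temperature.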
HDAC3 inh: blocks human histone deacetylase 3; O15379; recombinant HDAC3, fluorogenic peptide/trypsin coupled, fluorescence; inhibition, % at 8.3 µM; 320,000 tested, 0.15% active; AID 2718; in the data active means inhibition above about 26%, passing the limit was not always enough
MC4R ag barr: activates human MC4R beta-arrestin recruitment; P32245; AID 540308; activation, % at 8.9 µM; U2OS MC4R beta-arrestin complementation, luminescence; percent of melanotan II response, DMSO zero; 360,000 tested, 0.98% active;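 active means activation above a per-plate cutoff, the mean activation of sample wells on that plate plus 3 SD, cut at about 8% in these data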
Of the large screens only hits and unclear results are named; the others gave an inactive call. In the library only some 4.2% were active in any assay of this set; here they are far more common.

COc1ccc(-c2nc(CS(=O)CC(=O)NC3CCCc4ccccc43)c(C)o2)cc1OC (stereo not given)	ALR inh 98.9
COc1ccc(-c2nc(CS(=O)CC(=O)NC3CCCC3)c(C)o2)cc1OC (stereo not given)	ALR inh 99.2
COc1ccc(-c2nnn(CC(=O)NC3CCCc4ccccc43)n2)cc1OC (stereo not given)	NALP1 inh 42.2
COc1ccc(-c2nc(CSCC(=O)NC3CCCc4ccccc43)c(C)o2)cc1OC (stereo not given)	none (no result: ALR inh, Yeast UUG start, HDAC3 inh)
Cc1noc(C)c1NC(=O)N(C)C[C@H]1Oc2ncc(C#CC(C)C)cc2C(=O)N([C@@H](C)CO)C[C@@H]1C	none (no result: ALR inh, NALP1 inh, MC4R antag cAMP, HDAC3 inh, MC4R ag barr)
COc1ccccc1C#Cc1ccc([C@H]2[C@@H](CO)N3CCCCN(C(=O)C4CC4)C[C@H]23)cc1	none (no result: ALR inh, NALP1 inh, MC4R antag cAMP, HDAC3 inh, MC4R ag barr)
CC(C)NC(=O)Nc1ccc2c(c1)C(=O)N([C@H](C)CO)C[C@H](C)[C@H](CN(C)S(C)(=O)=O)OCCCC[C@H](C)O2	none (no result: ALR inh, NALP1 inh, MC4R antag cAMP, HDAC3 inh, MC4R ag barr)
S=C(NCCc1ccccc1)Nc1ccc(Nc2ccccc2)cc1	ALR inh 97.9
CCCNC(=S)Nc1ccccc1	ALR inh 89.6
S=C(NNC(=S)Nc1ccccc1)Nc1ccccc1	none
NC(=S)NNC(=S)Nc1ccccc1	ALR inh 97.4 (no result: Yeast UUG start)
CC(C)(C)NC(=S)Nc1ccc(Nc2ccccc2)cc1	ALR inh 99.2
C[C@@H]1CCCCO[C@H](CN(C)C(=O)Nc2ccccc2)[C@@H](C)CN([C@@H](C)CO)C(=O)c2cc(NS(=O)(=O)c3ccc(F)cc3)ccc2O1	none (no result: ALR inh, NALP1 inh, MC4R antag cAMP, HDAC3 inh, MC4R ag barr)
CCC(=O)N(C)C[C@@H]1Oc2cc(-c3cccc(F)c3)ccc2S(=O)(=O)N([C@@H](C)CO)C[C@H]1C	none (no result: ALR inh, NALP1 inh, MC4R antag cAMP, HDAC3 inh, MC4R ag barr)
CCC(=O)N(C)C[C@H]1Oc2cc(-c3ccccc3)ccc2S(=O)(=O)N([C@@H](C)CO)C[C@@H]1C	none (no result: ALR inh, NALP1 inh, MC4R antag cAMP, HDAC3 inh, MC4R ag barr)
C[C@H](CO)N1C[C@H](C)[C@H](CN(C)CC2CC2)Oc2cc(/C=C/c3ccccc3)ccc2S1(=O)=O	none (no result: ALR inh, NALP1 inh, MC4R antag cAMP, HDAC3 inh, MC4R ag barr)
C[C@@H]1CN([C@H](C)CO)C(=O)c2cc(-c3cncnc3)cnc2O[C@H]1CN(C)C(=O)Cc1ccccc1	none (no result: ALR inh, NALP1 inh, MC4R antag cAMP, HDAC3 inh, MC4R ag barr)
COCCCNC(=S)NNC(=S)Nc1ccccc1	ALR inh 96.4
COc1ccc(-n2ccnc(SCC(=O)NCc3ccccc3Cl)c2=O)cc1	ALR inh 99.2
Cc1cccn2cc(-c3ccc(NC(=O)Cc4ccccc4)cc3)nc12	MC4R ag barr 9.3
COc1ccc(S(=O)(=O)N(C)C[C@@H]2Oc3ccc(NC(=O)Cn4cnnn4)cc3CC(=O)N([C@H](C)CO)C[C@@H]2C)cc1	none (no result: ALR inh, NALP1 inh, MC4R antag cAMP, HDAC3 inh, MC4R ag barr)
Cc1ccc(-c2c(C(=O)O)c(C(=O)O)c3n2CSC3)cc1	ALR inh 93.1
CC(C)(C)c1ccc(-c2c(C(=O)O)c(C(=O)O)c3n2CSC3)cc1	none
O=C(O)c1c(C(=O)O)c(-c2ccc(Br)cc2)n2c1CSC2	ALR inh 97.9
COC(=O)c1c(C(=O)OC)c(-c2ccc(F)cc2)n2c1CSC2	ALR inh 98.8
COc1ccc(NC(=O)Nc2ccc3c(c2)C(=O)N([C@H](C)CO)C[C@H](C)[C@@H](CN(C)S(=O)(=O)c2c(C)noc2C)OCCCC[C@H](C)O3)cc1	none (no result: ALR inh, NALP1 inh, MC4R antag cAMP, HDAC3 inh, MC4R ag barr)
CC(=O)Nc1ccc2c(c1)C(=O)N(C)[C@H]1CC[C@H](CC(=O)Nc3cn(C)nc3C)O[C@H]1CO2	none (no result: ALR inh, NALP1 inh, MC4R antag cAMP, HDAC3 inh, MC4R ag barr)
CS(=O)(=O)Nc1ccc2c(c1)[C@H]1C[C@@H](CC(=O)N3CCOCC3)O[C@H](CO)[C@H]1O2	none (no result: ALR inh, NALP1 inh, MC4R antag cAMP, HDAC3 inh, MC4R ag barr)
CC(C)n1cc(C(=O)N2CCCC(N3CCN(c4cccc(Cl)c4)CC3)C2)cn1 (stereo not given)	ALR inh 89.2
O=C(c1ccsc1)N1CCCC(N2CCN(c3cccc(Cl)c3)CC2)C1 (stereo not given)	none
COc1ccccc1-c1ccc([C@H]2[C@@H](CO)N3CCCCN(C(=O)NC4CCCC4)C[C@H]23)cc1	none (no result: ALR inh, NALP1 inh, MC4R antag cAMP, HDAC3 inh, MC4R ag barr)
COCC(=O)N(C)C[C@@H]1Oc2cc(-c3ccc(C#N)cc3)ccc2S(=O)(=O)N([C@@H](C)CO)C[C@H]1C	none (no result: ALR inh, NALP1 inh, MC4R antag cAMP, HDAC3 inh, MC4R ag barr)
CCc1c(O)nc(SCC(=O)Nc2nc3ccccc3s2)n(C2CCCCC2)c1=O	ALR inh 92.2 (no result: NALP1 inh)
CCc1c(O)nc(SCC(=O)Nc2ccc(OC)cc2)n(C2CCCCC2)c1=O	ALR inh 98.6
COc1ccc(C#Cc2cnc3c(c2)C(=O)N([C@@H](C)CO)C[C@@H](C)[C@@H](CN(C)C(=O)Nc2cccc(OC)c2)O3)cc1	none (no result: ALR inh, NALP1 inh, MC4R antag cAMP, HDAC3 inh, MC4R ag barr)
CCNC(=O)C[C@H]1CC[C@@H]2[C@H](COc3ccc(NC(=O)NC(C)C)cc3C(=O)N2C)O1	none (no result: ALR inh, NALP1 inh, MC4R antag cAMP, HDAC3 inh, MC4R ag barr)
CN(C)C(C)(C)C#CCC(c1ccccc1)c1ccccc1	NALP1 inh 64.1 (no result: Yeast UUG start)
Cc1ccc(N=c2sc(C)c(C)n2C)cc1	ALR inh 99.2 (no result: Yeast UUG start)
CC(C)(C=O)C1=CC(=O)c2ccccc2C1=O	ALR inh 96.0, NALP1 inh 47.7 (no result: Yeast UUG start)
C[C@H](CO)N1C[C@H](C)[C@H](CN(C)C(=O)Nc2cccc(F)c2)Oc2ncc(C3=CCCC3)cc2C1=O	none (no result: ALR inh, NALP1 inh, MC4R antag cAMP, HDAC3 inh, MC4R ag barr)
CCC(C)NC(=O)C(NS(=O)(=O)c1ccc2c(c1)c(=O)n(C)c(=O)n2C)c1ccccc1 (stereo not given)	none
CC(C)CCNC(=O)C(NS(=O)(=O)c1ccc2c(c1)c(=O)n(C)c(=O)n2C)c1ccccc1 (stereo not given)	NALP1 inh 44.0
CN1C(=O)c2cc(NC(=O)Cc3ccccc3)ccc2OC[C@H]2O[C@H](CC(=O)NCC3CC3)CC[C@H]21	none (no result: ALR inh, NALP1 inh, MC4R antag cAMP, HDAC3 inh, MC4R ag barr)
O=C(Nc1nccs1)c1ccc(-c2ccc([N+](=O)[O-])cc2)o1	NALP1 inh 32.1
COc1ccc(S(=O)(=O)N/N=C(/C)c2ccncc2)c(OC)c1	ALR inh 81.2
COCCCNC(=O)c1ccccc1Oc1ccccc1	ALR inh 98.0
